The subject of experiment [1] is COVID-19 Delta virus. Kind of experiment: Lung histopathology of mice infected with COVID-19 Delta virus (treatment). Particulars: number of mice with lesion grade; Low dose (40 mg/kg); COVID-19 Delta virus infected mice.
In experiment [2] the test system is influenza virus.
[3] abbreviates: number of mice (4 lungs per group) with lesion grade, High dose (26 mg/kg), influenza virus infected mice.
[4] abbreviates: number of mice (4 lungs per group) with lesion grade, Low dose (13.0 mg/kg), influenza virus infected mice.

Consider 3 molecules from patent US20250049831A1, “ANTIVIRAL USE OF BISE[…], AND BISEPOXYLIGNAN COMPOSITION AND PREPARATION OF BISE[…]” (priority 2021, published 2025).

Each structure is given as a SMILES string. Where two headings read alike, the source gives them in different places.

Consider `COc1cc(O)cc(C2OCC3C(c4ccc(OC5OC(CO)C(O)C(O)C5O)c(OC)c4)OCC23)c1` [Serial No. 1, (7,8,7′,8′)-7,7′-bisepoxy-5′-hydroxy-3,3′hydroxy-bismethoxylignan, 4-O-β-D-glucoside], for which, in experiment [1], the “Interstitial pneumonia, Mild” value was found to be 2; the “Interstitial pneumonia, Moderate” value was found to be 2; the “Interstitial pneumonia, Severe” value was found to be 0; the “Pulmonary hemorrhage, Severe” value was determined as 0. In experiment [2] (setting [3]), the “Interstitial pneumonia, Mild” value is 4; the “Interstitial pneumonia, Moderate” value was found to be 0; the “Interstitial pneumonia, Severe” value is recorded as 0; the “Pulmonary hemorrhage, Mild” value came out at 4. Further, in experiment [2] (setting [3]), the “Pulmonary hemorrhage, Moderate” value amounted to 0 and the “Pulmonary hemorrhage, Severe” value is 0. For the same molecule, in experiment [2] (setting [4]), the “Interstitial pneumonia, Mild” value was 2; the “Interstitial pneumonia, Moderate” value came to 2; the “Interstitial pneumonia, Severe” value came out at 0; the “Pulmonary hemorrhage, Mild” value is on record as 2. In experiment [2] (setting [4]), the “Pulmonary hemorrhage, Moderate” value is 2 and the “Pulmonary hemorrhage, Severe” value was 0.
With `COc1ccc([C@H]2OC[C@H]3[C@@H]2CO[C@H]3c2ccc(O[C@@H]3O[C@H](CO)[C@@H](O)[C@H](O)[C@H]3O)c(OC)c2)cc1OC` [Serial No. 2, phillyrin], in experiment [2] (mouse, in vivo, 13 mg/kg), the “Interstitial pneumonia, Mild” value was determined as 2; the “Interstitial pneumonia, Moderate” value was 2; the “Interstitial pneumonia, Severe” value is 0; the “Pulmonary hemorrhage, Mild” value is 2. In experiment [2] (mouse, in vivo, 13 mg/kg), the “Pulmonary hemorrhage, Moderate” value is 2 and the “Pulmonary hemorrhage, Severe” value was found to be 0. In experiment [2] (mouse, in vivo, 26 mg/kg), the “Interstitial pneumonia, Mild” value was 4; the “Interstitial pneumonia, Moderate” value is on record as 0; the “Interstitial pneumonia, Severe” value turned out to be 0; the “Pulmonary hemorrhage, Mild” value came out at 4. In experiment [2] (mouse, in vivo, 26 mg/kg), the “Pulmonary hemorrhage, Moderate” value is reported as 0 and the “Pulmonary hemorrhage, Severe” value was determined as 0.
With `COc1cc([C@H]2OC[C@H]3[C@@H]2CO[C@H]3c2ccc(OC)c(OC)c2)ccc1O` [Serial No. 3, phillygenin], in experiment [2] (mouse, in vivo, 13 mg/kg), the “Interstitial pneumonia, Mild” value is 2; the “Interstitial pneumonia, Moderate” value was determined as 2; the “Interstitial pneumonia, Severe” value was 0; the “Pulmonary hemorrhage, Mild” value amounted to 2. Further, in experiment [2] (mouse, in vivo, 13 mg/kg), the “Pulmonary hemorrhage, Moderate” value was found to be 2 and the “Pulmonary hemorrhage, Severe” value came out at 0. Also, in experiment [2] (mouse, in vivo, 26 mg/kg), the “Interstitial pneumonia, Mild” value was found to be 3; the “Interstitial pneumonia, Moderate” value is on record as 1; the “Interstitial pneumonia, Severe” value is reported as 0; the “Pulmonary hemorrhage, Mild” value is reported as 3. Also, in experiment [2] (mouse, in vivo, 26 mg/kg), the “Pulmonary hemorrhage, Moderate” value was found to be 1 and the “Pulmonary hemorrhage, Severe” value came out at 0.
